# From patent US7470815B1, “Selective neuronal nitric oxide synthase inhibitors” (Northwestern University, priority 2006, dated 2008)
# Assay: Stability in Hepes buffer (enzyme assay medium)
# Conditions: Hepes buffer (pH 7.5), the medium for the enzyme assay
row,stability in Hepes buffer,Compound
1,unstable,"N/C(=N\CCC[C@H](N)CNc1ccc(N)cc1)N[N+](=O)[O-] [Compound 16, N-(4S)-{[4-Amino-5-(4-amino)phenylamino]-pentyl}-N′-nitroguanidine]"
2,unstable,"N=C(NCCC[C@H](N)CNc1cccc(N)c1)N[N+](=O)[O-] [Compound 15, Na-(4S)-{[4-Amino-5-(3-amino)phenylamino]pentyl}-N′-nitroguanidine]"
